The values that follow are results of earlier work, collected in patent US20110295006A1, “CYCLIC DIPEPTIDES AS FEED ADDITIVES” (EVONIK DEGUSSA GMBH, priority 2010, published 2011).

The conditions of this data set: Baker et al. 1982; cited from earlier work.

Turning to poly-L-methionine, the solubility in water entry was “absolute insolubility”.
